From patent US11484601B2, “Targeting M2-like tumor-associated macrophages by using melittin-based proapoptotic peptide” (TWI[…]., priority 2018, dated 2022)

Key:
LLC tumor cells = assay: Cell cycle via PI staining, flow cytometry; format: cell-based, mouse; settings: 0.1 to 1 μM
Method: (§1) More specifically, dKLA (SEQ ID NO: 2), MEL (SEQ ID NO: 1), MEL-dKLA (SEQ ID NO: 3; […]-d[KLAKLAKKLAKLAK]) peptide and 5-carboxyl tetramethylrhodamine (TMR)-conjugated dKLA, MEL and MEL-KLA peptides were purchased from GenScript (Piscataway, N.J., USA). TMR was conjugated with the amino group located at the N-terminal of the peptide. Regarding all of the peptides, 95% or greater purified peptides were used. Murine Lewis lung carcinoma (LLC) cells and macrophage RAW264.7 of mice were cultured in Dulbecco's modified Eagle's medium (DMEM; Welgene, Korea) to which 10% heat-inactivated fetal bovine serum (Welgene), 100 U/mL penicillin and 100 μg/mL streptomycin (Invitrogen, CA, USA) were added. Macrophage (RAW264.7) differentiated into M2-type was treated with IL-4 and IL-13 in the medium for 24 hours. After the treatment, the cells were cultured in a state in which serum was insufficient for 48 hours. M1-type macrophage was treated with 1 ng/mL of LPS for 24 hours to induce differentiation.
More specifically, cells were fixed with 70% cold ethanol and stored at 20° C. for 24 hours. Then, propidium iodide (PI) was added to PBS containing 0.1% Triton X-100 and 20 μg/ml RNase such that 50 μg/ml concentration was achieved. The mixture was applied to the cell. Measurement was done using a flow cytometry method.

[1] = system: M2 macrophage (RAW264.7 differentiated into M2-type with IL-4 and IL-13); assay: MTS cell viability assay, M2-type macrophage; format: cell-based, mouse; settings: 24 hours, read-out: half-maximal inhibitory concentration (IC50) against M2 macrophage
Method: as §1
The cell viability test was measured via the MTS assay. RAW264.7 macrophage was differentiated into M1-type or M2-type macrophage which was inoculated onto a 96-well plate at 3×10^4 cells/well. The next day, the macrophage was treated with each of PBS, dKLA, MEL and MEL-dKLA. […] Then, fluorescence was measured at 490 nm to measure cell viability. […]

[2] = MTS cell viability assay, M1-type macrophage; format: cell-based; settings: mouse, RAW264.7 macrophages differentiated into M1-type with LPS, 0.6 to 0.8 μM
Method: as §1
The cell viability test was measured via the MTS assay. RAW264.7 macrophage was differentiated into M1-type or M2-type macrophage which was inoculated onto a 96-well plate at 3×10^4 cells/well. The next day, the macrophage was treated with each of PBS, dKLA, MEL and MEL-dKLA. […] Then, fluorescence was measured at 490 nm to measure cell viability.

SMILES: CC[C@H](C)[C@H](NC(=O)CN)C(=O)NCC(=O)N[C@@H](C)C(=O)N[C@H](C(=O)N[C@@H](CC(C)C)C(=O)N[C@@H](CCCCN)C(=O)N[C@H](C(=O)N[C@@H](CC(C)C)C(=O)N[C@H](C(=O)N[C@H](C(=O)NCC(=O)N[C@@H](CC(C)C)C(=O)N1CCC[C@H]1C(=O)N[C@@H](C)C(=O)N[C@@H](CC(C)C)C(=O)N[C@H](C(=O)N[C@@H](CO)C(=O)N[C@@H](Cc1c[nH]c2ccccc12)C(=O)N[C@H](C(=O)N[C@@H](CCCCN)C(=O)N[C@@H](CCCNC(=N)N)C(=O)N[C@@H](CCCCN)C(=O)N[C@@H](CCCNC(=N)N)C(=O)N[C@@H](CCC(N)=O)C(=O)N[C@@H](CCC(N)=O)C(=O)NCC(=O)NCC(=O)NCC(=O)NCC(=O)N[C@@H](CO)C(=O)N[C@H](CCCCN)C(=O)N[C@H](CC(C)C)C(=O)N[C@H](C)C(=O)N[C@H](CCCCN)C(=O)N[C@H](CC(C)C)C(=O)N[C@H](C)C(=O)N[C@H](CCCCN)C(=O)N[C@H](CCCCN)C(=O)N[C@H](CC(C)C)C(=O)N[C@H](C)C(=O)N[C@H](CCCCN)C(=O)N[C@H](CC(C)C)C(=O)N[C@H](C)C(=O)N[C@H](CCCCN)C(=O)O)[C@@H](C)CC)[C@@H](C)CC)[C@@H](C)O)[C@@H](C)O)C(C)C)C(C)C [MEL-dKLA]
- cytotoxicity against LLC tumor cells (LLC tumor cells): did not exhibit cytotoxicity
- IC50 [1]: 850 nM
- viability at 24 h [2]: 66 to 86%
